# Laboratory results as given in publication PMC4532598 (European journal of pharmacology, 2015).
# Protein sequences, listed by entry. Tags and fused reporters are not part of them. Lines headed by an entry give the natural chain unless they say otherwise; changes in a name come on top.
# UniProt P33534: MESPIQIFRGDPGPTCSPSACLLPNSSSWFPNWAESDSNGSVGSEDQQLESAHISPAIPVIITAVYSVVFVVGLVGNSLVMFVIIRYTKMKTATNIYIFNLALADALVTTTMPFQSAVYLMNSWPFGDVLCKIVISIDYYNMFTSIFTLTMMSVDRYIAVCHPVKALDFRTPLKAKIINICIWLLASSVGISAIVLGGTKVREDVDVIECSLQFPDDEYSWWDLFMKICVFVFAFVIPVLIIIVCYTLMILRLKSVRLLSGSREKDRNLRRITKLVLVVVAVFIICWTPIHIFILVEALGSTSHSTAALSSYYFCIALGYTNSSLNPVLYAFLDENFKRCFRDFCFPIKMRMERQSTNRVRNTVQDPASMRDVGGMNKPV
# What was measured:
# [1] = target: T1, mKOP receptor (Mus musculus, UniProt P33534); experiment: biochemical
# [2] = target: T1, mKOP receptor; type: cell-based
compound,measurement,setting,value
"CC(C)=CCN1CCC2(C)c3cc(O)ccc3CC1C2C (stereo not drawn) [Pentazocine, pentazocine]",EC50,"[1]; [35S]GTPγS binding EC50, mean",62 nM
same,EC50,[1]; [35S]GTPγS binding pEC50,61.7 nM
same,Internalization pEC50,[2],No internalization
